Drawing on patent US20240174727A1, “LONG-ACTING NATRIURETIC PEPTIDES AND USES THEREOF” (Eli Lilly and Company, priority 2022, published 2024), this text covers EC50 for 2 compounds.

This test addresses T1, rat NPRA (Rattus norvegicus, UniProt P18910).
T1 construct: Full-Length cDNA Cloning and Generation of Cell Lines Overexpressing Natriuretic Peptide Receptors (NPRs); expressed in transfected cells; host or cells: Jump-in T-Rex HEK293 cells, pJTI R4 CMV-TO MCS pA vector, tetracycline induction
T1 sequence (P18910 29-1057): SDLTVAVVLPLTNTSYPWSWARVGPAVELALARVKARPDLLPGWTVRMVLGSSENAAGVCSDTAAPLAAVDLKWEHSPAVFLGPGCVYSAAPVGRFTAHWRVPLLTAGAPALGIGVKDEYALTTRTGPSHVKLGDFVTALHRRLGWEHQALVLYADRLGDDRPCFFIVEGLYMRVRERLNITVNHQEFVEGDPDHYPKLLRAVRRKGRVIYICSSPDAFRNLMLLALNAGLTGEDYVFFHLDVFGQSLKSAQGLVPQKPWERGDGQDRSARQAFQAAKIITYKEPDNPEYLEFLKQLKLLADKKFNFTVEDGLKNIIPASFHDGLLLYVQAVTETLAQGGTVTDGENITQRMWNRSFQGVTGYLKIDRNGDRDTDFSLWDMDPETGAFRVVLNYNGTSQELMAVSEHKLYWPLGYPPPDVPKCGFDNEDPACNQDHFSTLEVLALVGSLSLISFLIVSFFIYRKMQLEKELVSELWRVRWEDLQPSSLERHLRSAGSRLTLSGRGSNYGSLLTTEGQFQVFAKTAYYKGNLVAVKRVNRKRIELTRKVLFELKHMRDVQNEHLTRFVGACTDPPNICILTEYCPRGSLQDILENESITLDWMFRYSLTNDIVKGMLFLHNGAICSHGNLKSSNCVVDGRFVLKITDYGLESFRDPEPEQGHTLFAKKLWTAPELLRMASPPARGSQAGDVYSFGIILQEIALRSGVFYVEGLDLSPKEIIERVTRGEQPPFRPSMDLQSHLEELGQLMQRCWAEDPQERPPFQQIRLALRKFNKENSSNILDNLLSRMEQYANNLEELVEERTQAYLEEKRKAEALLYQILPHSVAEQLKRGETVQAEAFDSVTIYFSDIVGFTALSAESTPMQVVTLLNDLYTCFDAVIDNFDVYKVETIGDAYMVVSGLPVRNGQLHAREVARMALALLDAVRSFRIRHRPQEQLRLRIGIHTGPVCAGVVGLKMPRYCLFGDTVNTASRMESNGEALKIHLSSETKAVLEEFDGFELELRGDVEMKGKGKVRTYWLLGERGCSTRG
Put plainly: Rat NPRA cGMP activity assay (HTRF) in HEK293 cells overexpressing NPRA. In kind it is cell-based. How it is done:
All sequences were verified by full-length sequencing performed by ACGT DNA Sequencing Services (Wheeling, IL). The target cDNA was cloned into pJTI R4 CMV-TO MCS pA vector and then co-transfected with pJT1R4 Int vector into Jump-in™ T-Rex™ HEK293 cells for mammalian inducible expression using Jump-in™ T-Rex™ HEK293 kit and Lipofectamine LTX and Plus Reagent following manufacturer's protocols, as briefly described below.
Jump-in™ T-Rex™ HEK293 cells were plated in a BioCOAT® poly-D-lysine coated 6-well plate (Becton Dickinson, cat no. 354413) at 1 million cells/well in 2 mL culture medium and incubated for 18 h at 37° C. and 5% CO2 to 50-70% confluence. A cDNA mix was made in a 50 mL tube by adding 1.5 μg target cDNA, 1.5 μg pJT1R4 Int vector, 3 μL Plus Reagent, and 300 μL Opti-MEM I sequentially into the tube. A reagent mix was made in a separate 50 mL tube by adding 7.5 μL Lipofectamine LTX into 300 μL Opti-MEM I. The mixtures were incubated for 5 min at room temperature. The cDNA mix was then transferred into the reagent mix, mixed well, and incubated for additional 30 min at room temperature. A 500 μL of cDNA/Lipofectamine complex was then transferred to the wells of the cell plate in which the culture medium was changed to 2 mL of transfection medium containing DMEM with 4.5 g/L D-glucose supplemented with 10% FBS-HI and 20 mM HEPES. Transfected cells were cultured for 48 h in an incubator at 37° C. and 5% CO2. A subclone or pool from each overexpressing cell line was maintained in culture medium with the addition of 2 mg/mL G418 sulfate for the clone selection based on its built-in resistance to G418 sulfate for at least 3 weeks with medium changed every 2-3 days.
NPRs were overexpressed in T-Rex™ HEK293 cells following the induction with 300 ng/mL tetracycline in culture medium for 48 h. Induced cell lines in an exponential growth phase were treated with 0.05% trypsin-EDTA for a few seconds at room temperature, harvested in cell medium containing FBS to neutralize the trypsin, counted, and cryopreserved at the density of 2 million cells/mL in cell preservation solution containing FBS-HI with 5% DMSO. Cryopreserved cells were stored at −80° C. for a few days prior to transferring to a liquid nitrogen tank. Induced cell lines were then used for suspension assays to measure the activity of polypeptides to stimulate cGMP production in cGMP assays or for the preparation of cell membranes to measure the binding activity of polypeptides in competitive radioligand binding assays, as described below.
Test polypeptides were added starting at 10 μM concentration and at 10-fold decreasing concentrations to obtain 8-point concentration-response curves (i.e., 10 μM to 1 pM). The quantity of cGMP generated was detected using HTRF® technology and normalized to maximum amount produced by 100 nM amidated rat ANP and the minimum amount produced by assay buffer. Detailed steps are outlined below.
Stock solutions of test polypeptides (2 mM) dissolved in DMSO were first diluted 100-fold in assay buffer containing HBSS with Ca^2+ and Mg^2+, 5 mM HEPES, 0.5 mM IBMX, and 0.1% BSA or 0.1% casein (pH 7.4). The polypeptides were further serially diluted in 1:10 dilution steps in assay buffer containing 0.1% BSA or 0.1% casein to generate 8-point 2× working stock solutions ranging from 20 μM to […].
A 10 μL cell suspension containing 4000 cells was plated in Costar® half-area white opaque 96-well plates (Corning, cat no. 3693). Then 10 μL of assay buffer (basal activity), 200 nM of amidated rat ANP (maximum activity) or 2× working stock solutions of test polypeptides were transferred into the plate. Final concentration of DMSO in each well was 0.5%. The plate was shaken for 15 sec and then incubated for 40 min at room temperature.
The cGMP generated was measured using cGMP kit following the manufacturer's directions, as described below.

Where [1] appears, read: cGMP Assay (EC50, pM) w/Casein rNPRA, assay buffer with 0.1% casein.

For orientation: EC50 means the midpoint of the concentration-response curve. High values mean weaker potency, low ones greater potency.

Molecules are shown by their SMILES.

In turn, `CC[C@H](C)[C@@H]1NC(=O)[C@H](CCCNC(=N)N)NC(=O)[C@H](CC(=O)O)NC(=O)[C@H]([C@@H](C)CC)NC(=O)[C@H](CCCNC(=N)N)NC(=O)CNC(=O)CNC(=O)[C@H](Cc2ccccc2)NC(=O)[C@@H](NC(=O)[C@H](CO)NC(=O)[C@H](CO)NC(=O)[C@H](CCCNC(=N)N)NC(=O)[C@@H]2CCCN2C(=O)[C@H](CCCCN)NC(=O)[C@H](CCC(=O)O)NC(=O)CNC(=O)[C@H](CCCCN)NC(=O)[C@H](CCC(=O)O)NC(=O)[C@H](CCCCN)NC(=O)[C@H](CCC(=O)O)NC(=O)[C@H](CCCCN)NC(=O)[C@H](CCC(=O)O)NC(=O)CC[C@H](NC(=O)CCCCCCCCCCCCCCCCCCC(=O)O)C(=O)O)CSCSC[C@@H](C(=O)N2CCC[C@H]2C(=O)N[C@@H](CO)C(=O)N[C@@H](Cc2ccccc2)C(=O)N[C@@H](CCCNC(=N)N)C(=O)N[C@@H](Cc2c[nH]cn2)C(=O)NCC(=O)NCC(=O)N2CCC[C@H]2C(=O)N[C@@H](CO)C(=O)N[C@@H](CO)C(=O)NCC(=O)N[C@@H](C)C(=O)N2CCC[C@H]2C(=O)N2CCC[C@H]2C(=O)N2CCC[C@H]2C(=O)N[C@@H](CO)C(N)=O)NC(=O)CNC(=O)[C@H](CC(C)C)NC(=O)CNC(=O)[C@H](CO)NC(=O)[C@H](Cc2ccc(O)cc2)NC(=O)[C@H](Cc2c[nH]cn2)NC(=O)CNC1=O` [Example 57] yielded an EC50 under setting [1] of 9500 pM. On to `CC[C@H](C)[C@@H]1NC(=O)[C@H](CCCNC(=N)N)NC(=O)[C@H](CC(=O)O)NC(=O)[C@H]([C@@H](C)CC)NC(=O)[C@H](CCCNC(=N)N)NC(=O)[C@H](CCCCN)NC(=O)CNC(=O)[C@H](Cc2ccccc2)NC(=O)[C@@H](NC(=O)[C@H](CO)NC(=O)[C@H](CO)NC(=O)[C@H](CCCNC(=N)N)NC(=O)[C@@H]2CCCN2C(=O)[C@H](CCCCN)NC(=O)[C@H](CCC(=O)O)NC(=O)CNC(=O)[C@H](CCCCN)NC(=O)[C@H](CCC(=O)O)NC(=O)[C@H](CCCCN)NC(=O)[C@H](CCC(=O)O)NC(=O)[C@H](CCCCN)NC(=O)[C@H](CCC(=O)O)NC(=O)CC[C@H](NC(=O)CCCCCCCCCCCCCCCCCCC(=O)O)C(=O)O)CSCSC[C@@H](C(=O)N2CCC[C@H]2C(=O)N[C@@H](CO)C(=O)N[C@@H](Cc2ccccc2)C(=O)N[C@@H](CCCNC(=N)N)C(=O)N[C@@H](Cc2c[nH]cn2)C(=O)NCC(=O)N[C@@H](CO)C(=O)N2CCC[C@H]2C(=O)N[C@@H](CO)C(=O)N[C@@H](CO)C(=O)NCC(=O)N[C@@H](C)C(=O)N2CCC[C@H]2C(=O)N2CCC[C@H]2C(=O)N2CCC[C@H]2C(=O)N[C@@H](CO)C(N)=O)NC(=O)CNC(=O)[C@H](CC(C)C)NC(=O)CNC(=O)[C@H](CO)NC(=O)[C@H](Cc2ccc(O)cc2)NC(=O)[C@H](Cc2c[nH]cn2)NC(=O)CNC1=O` [Example 5], for which the concentration giving a half-maximal response (EC50) (cGMP Assay (EC50, pM) w/BSA rNPRA, assay buffer with 0.1% BSA) is 276000 pM and the EC50 under setting [1] was 1130 pM.
